Reference: paper PMC11496002 (Epilepsia, 2024)

Tests used:
[1] = system: hyperthermia-induced seizures in Scn1a^A1783V/WT mice; conditions: CBD 135 mg/kg alone; cited from earlier work
[2] = Plasma and brain pharmacokinetics after intraperitoneal administration; conditions: Scn1a^WT/WT mice
[3] = Double (CLB 5 mg/kg + VPA 75 mg/kg) ip
[4] = Triple (CLB 5 + VPA 75 + STP 100 mg/kg) ip
[5] = Double (CLB 5 mg/kg + VPA 75 mg/kg) ip, plasma
[6] = Triple (CLB 5 + VPA 75 + STP 100 mg/kg) ip, plasma

Row | SMILES | Protection against hyperthermia-induced seizures [1] | Brain AUC0-inf [2, 3] | Brain Cmax [2, 3] | Cmax ([2]; Scn1a^WT/WT, mouse, in vivo, ip, Plasma Cmax, Double (CLB 5 mg/kg + VPA 75 mg/kg) ip, plasma) | Brain AUC0-inf [2, 4] | Brain Cmax [2, 4] | Brain t1/2 [2, 3] | Plasma AUC0-inf [2, 5] | Plasma Cmax [2, 5] | Plasma t1/2 [2, 5] | Brain t1/2 [2, 4] | Plasma AUC0-inf [2, 6] | Plasma Cmax [2, 6] | Plasma t1/2 [2, 6]
1 | C=C(C)[C@@H]1CCC(C)=C[C@H]1c1c(O)cc(CCCCC)cc1O [CBD, cannabidiol] | failed to increase temperature thresholds |  |  |  |  |  |  |  |  |  |  |  |  | 
2 | CN1C(=O)CC(=O)N(c2ccccc2)c2cc(Cl)ccc21 [CLB, clobazam, reference compound] |  | 0.637 µg·h/g | 0.76 µg/g | 540 ng/mL | 7.69 µg·h/g | 2.12 µg/g |  |  |  |  |  |  |  | 
3 | O=C1CC(=O)N(c2ccccc2)c2cc(Cl)ccc2N1 [N-CLB, N-desmethylclobazam] |  | 5.13 µg·h/g | 0.788 µg/g |  | 16.3 µg·h/g | 1.22 µg/g | 3.3 h | 3610 ng·h/mL | 567 ng/mL | 2.61 h | 11.2 h | 7130 ng·h/mL | 880 ng/mL | 3.83 h
